Results as given in ChEMBL document CHEMBL1137980, “Rationale, design, and synthesis of novel phenyl imidazoles as opioid receptor agonists for gastrointestinal disorders” (J Med Chem, 2004).

Sequences of proteins named here, by UniProt entry; tags and fusion partners are left off.
UniProt P33535, whole entry: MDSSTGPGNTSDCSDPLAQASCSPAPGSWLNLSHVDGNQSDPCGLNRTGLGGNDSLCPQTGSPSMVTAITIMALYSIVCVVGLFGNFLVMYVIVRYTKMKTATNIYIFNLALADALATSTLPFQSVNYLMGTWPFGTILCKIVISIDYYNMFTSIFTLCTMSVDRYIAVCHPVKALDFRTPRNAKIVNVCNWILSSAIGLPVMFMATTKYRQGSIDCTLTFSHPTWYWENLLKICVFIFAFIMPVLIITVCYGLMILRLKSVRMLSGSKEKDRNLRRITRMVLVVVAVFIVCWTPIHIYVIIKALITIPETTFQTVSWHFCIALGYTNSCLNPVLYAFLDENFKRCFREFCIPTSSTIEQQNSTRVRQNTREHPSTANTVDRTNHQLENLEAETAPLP

Target: Mu-type opioid receptor (Rattus norvegicus, UniProt P33535)
Assay: Binding affinity for Mu opioid receptor of rat brain
Method in brief: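 Male Wistar rat forebrain membranes in 50 mM Tris HCl pH 7.4 with 5 mM MgCl2. Incubated 2.5 h at 25 °C with ~4 nM [3H]DPDPE (δ) or ~0.8 nM [3H]DAMGO (μ). Filtered, rinsed with 10 mM HEPES pH 7.4 and counted by liquid scintillation. Ki derived from a range of test concentrations; single-concentration data expressed as % inhibition of specific binding.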

CN(C)C(=O)C(CCN1CCC(O)(c2ccc(Cl)cc2)CC1)(c1ccccc1)c1ccccc1 [LOPERAMIDE]
pKi: 9.80

pKi: −log10 of the molar value.
